The target in this assay is Sodium channel protein type 9 subunit alpha (Homo sapiens, UniProt Q15858). The assay can be described thus: Inhibition of human Nav1.7 expressed in HEK-293 cells at -130 to -110 mV holding potential by whole-cell voltage clamp analysis. The class given is cell-based, HEK293.

Chains of the proteins cited; added tags and fusions are not shown.
UniProt Q15858, whole entry: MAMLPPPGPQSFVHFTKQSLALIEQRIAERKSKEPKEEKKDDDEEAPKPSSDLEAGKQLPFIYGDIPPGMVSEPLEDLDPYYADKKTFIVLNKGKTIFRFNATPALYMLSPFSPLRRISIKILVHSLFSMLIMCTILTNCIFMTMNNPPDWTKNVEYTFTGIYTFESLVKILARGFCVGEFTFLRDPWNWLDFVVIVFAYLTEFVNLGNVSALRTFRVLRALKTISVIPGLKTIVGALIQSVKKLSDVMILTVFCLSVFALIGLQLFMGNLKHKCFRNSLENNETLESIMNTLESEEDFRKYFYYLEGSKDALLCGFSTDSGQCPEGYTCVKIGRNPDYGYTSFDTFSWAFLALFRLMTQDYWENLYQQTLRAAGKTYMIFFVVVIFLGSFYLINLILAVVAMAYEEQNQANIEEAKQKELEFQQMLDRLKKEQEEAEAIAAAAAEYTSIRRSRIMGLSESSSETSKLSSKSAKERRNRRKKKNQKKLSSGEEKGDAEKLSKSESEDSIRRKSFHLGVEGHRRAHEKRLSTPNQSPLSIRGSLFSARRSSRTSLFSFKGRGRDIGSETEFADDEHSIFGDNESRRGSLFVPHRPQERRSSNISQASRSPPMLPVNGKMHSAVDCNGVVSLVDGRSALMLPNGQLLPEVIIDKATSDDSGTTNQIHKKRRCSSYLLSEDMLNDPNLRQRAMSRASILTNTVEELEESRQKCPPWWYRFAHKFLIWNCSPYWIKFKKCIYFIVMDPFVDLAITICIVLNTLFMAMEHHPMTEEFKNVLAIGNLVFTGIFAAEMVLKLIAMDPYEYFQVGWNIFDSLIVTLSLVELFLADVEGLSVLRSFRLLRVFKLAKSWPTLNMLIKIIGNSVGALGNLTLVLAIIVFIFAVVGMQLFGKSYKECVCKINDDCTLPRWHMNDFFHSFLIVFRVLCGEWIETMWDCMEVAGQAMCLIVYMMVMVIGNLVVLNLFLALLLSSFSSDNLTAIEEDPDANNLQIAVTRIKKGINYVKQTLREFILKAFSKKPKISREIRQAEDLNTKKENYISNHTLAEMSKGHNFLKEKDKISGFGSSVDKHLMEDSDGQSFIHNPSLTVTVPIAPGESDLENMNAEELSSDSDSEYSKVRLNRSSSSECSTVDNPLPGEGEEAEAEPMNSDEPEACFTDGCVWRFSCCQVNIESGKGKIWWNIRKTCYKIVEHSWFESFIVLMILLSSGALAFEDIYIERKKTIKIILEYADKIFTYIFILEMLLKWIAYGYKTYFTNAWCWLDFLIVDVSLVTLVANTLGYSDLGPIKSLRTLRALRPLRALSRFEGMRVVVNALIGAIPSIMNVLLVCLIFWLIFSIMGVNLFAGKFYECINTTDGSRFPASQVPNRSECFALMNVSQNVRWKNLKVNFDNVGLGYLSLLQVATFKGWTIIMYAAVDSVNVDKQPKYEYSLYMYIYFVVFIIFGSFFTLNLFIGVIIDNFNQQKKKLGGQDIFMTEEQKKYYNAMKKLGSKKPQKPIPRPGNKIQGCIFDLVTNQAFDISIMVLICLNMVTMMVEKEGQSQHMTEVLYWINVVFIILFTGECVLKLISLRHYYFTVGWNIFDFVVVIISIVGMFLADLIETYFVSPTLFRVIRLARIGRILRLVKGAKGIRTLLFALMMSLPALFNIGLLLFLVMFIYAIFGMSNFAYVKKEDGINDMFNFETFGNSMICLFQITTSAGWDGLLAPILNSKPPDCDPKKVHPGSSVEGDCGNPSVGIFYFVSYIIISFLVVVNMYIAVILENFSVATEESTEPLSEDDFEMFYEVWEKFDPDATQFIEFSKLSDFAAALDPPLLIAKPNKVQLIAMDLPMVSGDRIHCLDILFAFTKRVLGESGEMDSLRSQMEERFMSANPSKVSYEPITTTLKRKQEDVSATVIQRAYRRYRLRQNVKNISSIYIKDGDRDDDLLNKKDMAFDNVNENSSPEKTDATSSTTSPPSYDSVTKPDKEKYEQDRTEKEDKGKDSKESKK

Structures are written as SMILES. pIC50: −log10 of the molar value.

For `CSCC[C@@H]1NC(=O)CNC(=O)[C@H](CCC(=O)O)NC(=O)[C@@H]2CSSC[C@H](NC(=O)[C@@H](N)Cc3ccc(O)cc3)C(=O)N[C@@H](CCC(N)=O)C(=O)N[C@@H](CCCCN)C(=O)N[C@@H](Cc3c[nH]c4ccccc34)C(=O)N[C@@H](CCSC)C(=O)N[C@@H](Cc3c[nH]c4ccccc34)C(=O)N[C@@H]([C@@H](C)O)C(=O)N[C@H]3CSSC[C@H](NC(=O)[C@H](C(C)C)NC1=O)C(=O)N[C@@H](CCCNC(=N)N)C(=O)N[C@@H](CC(C)C)C(=O)N[C@@H](Cc1c[nH]c4ccccc14)C(=O)N[C@H](C(=O)N[C@@H](CCCCN)C(=O)N[C@@H](CCCCN)C(=O)N[C@@H](CCCCN)C(=O)N[C@@H](CC(C)C)C(=O)N[C@@H](Cc1c[nH]c4ccccc14)C(N)=O)CSSC[C@H](NC(=O)[C@H](CCCCN)NC(=O)[C@H](CCCNC(=N)N)NC(=O)[C@H](CCC(=O)O)NC(=O)[C@H](CO)NC(=O)[C@H](CC(=O)O)NC3=O)C(=O)N2`, the pIC50 (usually the IC50 on a negative log10 scale, so that one unit is a factor of ten) was 9.64.

The values are drawn from ChEMBL document CHEMBL3351726, “Studies examining the relationship between the chemical structure of protoxin II and its activity on voltage gated sodium channels” (J Med Chem, 2014).
